The values that follow are results of earlier work, collected in publication PMC8032764 (Scientific Reports, 2021).

The chains behind the UniProt entries cited, without tags or fusion partners. Residues count along the entry.
UniProt P18507, 40-475: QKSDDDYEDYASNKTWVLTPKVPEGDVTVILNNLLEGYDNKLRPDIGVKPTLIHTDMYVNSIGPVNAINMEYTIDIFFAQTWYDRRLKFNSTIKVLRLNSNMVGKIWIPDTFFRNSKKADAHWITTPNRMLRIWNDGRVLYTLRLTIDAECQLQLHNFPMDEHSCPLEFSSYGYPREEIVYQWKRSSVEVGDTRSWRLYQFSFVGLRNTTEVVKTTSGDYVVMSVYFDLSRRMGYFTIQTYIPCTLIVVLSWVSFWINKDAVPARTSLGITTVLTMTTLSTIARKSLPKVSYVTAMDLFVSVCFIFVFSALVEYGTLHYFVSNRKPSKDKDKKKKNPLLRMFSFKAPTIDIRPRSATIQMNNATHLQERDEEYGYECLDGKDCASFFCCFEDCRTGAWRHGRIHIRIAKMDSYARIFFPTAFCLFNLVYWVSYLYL
UniProt P48169, 36-554: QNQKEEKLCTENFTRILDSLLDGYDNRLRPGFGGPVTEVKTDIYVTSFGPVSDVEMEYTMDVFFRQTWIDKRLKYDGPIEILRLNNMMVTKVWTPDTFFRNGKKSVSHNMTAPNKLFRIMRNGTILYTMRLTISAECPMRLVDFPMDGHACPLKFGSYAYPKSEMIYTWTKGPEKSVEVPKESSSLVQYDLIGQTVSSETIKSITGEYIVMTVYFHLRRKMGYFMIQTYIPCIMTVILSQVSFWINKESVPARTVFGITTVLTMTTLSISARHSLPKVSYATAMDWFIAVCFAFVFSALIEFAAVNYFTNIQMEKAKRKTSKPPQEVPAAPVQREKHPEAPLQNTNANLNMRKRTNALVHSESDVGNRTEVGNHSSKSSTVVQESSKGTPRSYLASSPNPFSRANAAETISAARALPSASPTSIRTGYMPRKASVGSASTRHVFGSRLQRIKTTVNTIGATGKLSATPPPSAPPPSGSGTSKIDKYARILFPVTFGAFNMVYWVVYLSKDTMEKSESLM

This data set concerns the target T1, human α4β3γ2 (Homo sapiens, UniProt P18507+P48169).
T1 construct: expressed in transfected cells; host or cells: HEK293-EBNA, transient
The conditions noted are these: previously determined; read-out: Kd of the radiolabel; cited from earlier work.

`[3H]C([3H])([3H])N1Cc2c(C(=O)OCC)ncn2-c2ccc(N=[N+]=[N-])cc2C1=O` [Ro 15-4513, ethyl 8-azido-6-oxo-5-(tritritiomethyl)-4H-imidazo[1,5-a][1,4]benzodiazepine-3-carboxylate]: the Kd was 1.01 nM.

Broadly, the Kd is a measure of binding affinity in units of concentration.
